# According to IntAct's records for PubMed 18307994:
# B1: Optineurin (Homo sapiens), Q96CV9 (parent)
# chain: MSHQPLSCLTEKEDSPSESTGNGPPHLAHPNLDTFTPEELLQQMKELLTENHQLKEAMKLNNQAMKGRFEELSAWTEKQKEERQFFEIQSKEAKERLMALSHENEKLKEELGKLKGKSERSSEDPTDDSRLPRAEAEQEKDQLRTQVVRLQAEKADLLGIVSELQLKLNSSGSSEDSFVEIRMAEGEAEGSVKEIKHSPGPTRTVSTGTALSKYRSRSADGAKNYFEHEELTVSQLLLCLREGNQKVERLEVALKEAKERVSDFEKKTSNRSEIETQTEGSTEKENDEEKGPETVGSEVEALNLQVTSLFKELQEAHTKLSEAELMKKRLQEKCQALERKNSAIPSELNEKQELVYTNKKLELQVESMLSEIKMEQAKTEDEKSKLTVLQMTHNKLLQEHNNALKTIEELTRKESEKVDRAVLKELSEKLELAEKALASKQLQMDEMKQTIAKQEEDLETMTILRAQMEVYCSDFHAERAAREKIHEEKEQLALQLAVLLKENDAFEDGGRQSLMEMQSRHGARTSDSDQQAYLVQRGAEDRDWRQQRNIPIHSCPKCGEVLPDIDTLQIHVMDCII
# partner: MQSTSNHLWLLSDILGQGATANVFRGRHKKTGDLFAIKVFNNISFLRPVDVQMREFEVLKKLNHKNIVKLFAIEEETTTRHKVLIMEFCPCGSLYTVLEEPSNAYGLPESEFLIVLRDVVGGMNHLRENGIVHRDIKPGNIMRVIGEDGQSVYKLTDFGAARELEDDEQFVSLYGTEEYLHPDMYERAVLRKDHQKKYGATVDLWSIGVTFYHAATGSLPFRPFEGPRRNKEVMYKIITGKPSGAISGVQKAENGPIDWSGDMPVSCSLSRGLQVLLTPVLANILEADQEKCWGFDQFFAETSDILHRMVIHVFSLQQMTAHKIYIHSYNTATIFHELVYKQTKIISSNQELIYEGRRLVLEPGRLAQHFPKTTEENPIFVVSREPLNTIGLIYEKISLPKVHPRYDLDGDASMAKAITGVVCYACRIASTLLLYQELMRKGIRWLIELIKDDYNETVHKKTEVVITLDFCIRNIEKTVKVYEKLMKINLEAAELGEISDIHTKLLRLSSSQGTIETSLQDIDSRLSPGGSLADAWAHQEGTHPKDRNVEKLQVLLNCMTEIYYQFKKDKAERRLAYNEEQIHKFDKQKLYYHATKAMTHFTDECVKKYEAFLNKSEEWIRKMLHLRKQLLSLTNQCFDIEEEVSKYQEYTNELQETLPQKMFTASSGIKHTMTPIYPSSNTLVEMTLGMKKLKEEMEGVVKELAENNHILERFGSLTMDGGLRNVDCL
# Variants of: B1
# Conditions: with tbk1_human TBK1, Q9UHD2
row,Variant,effect of a mutation on the interaction
1,E50K,increasing interaction

# Variants of: B1
# Conditions: with tbk1_human TBK1, Q9UHD2
# Remark: another data set of the same source
row,Variant,effect of a mutation on the interaction
1,M98K,disrupting interaction
